The list shows a part of the results, in another mix than the full data. Some salts and complexes are drawn in separate pieces, as the source files them; their charges need not balance. Calls of active or inactive are those of the source.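 Rule for the calls: active = inhibition at 20 µM, scaled to each plate's controls, above about 33% (limit read from the data); inactive = the rest.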

Chains of the proteins cited; added tags and fusions are not shown.
UniProt O00487, whole entry: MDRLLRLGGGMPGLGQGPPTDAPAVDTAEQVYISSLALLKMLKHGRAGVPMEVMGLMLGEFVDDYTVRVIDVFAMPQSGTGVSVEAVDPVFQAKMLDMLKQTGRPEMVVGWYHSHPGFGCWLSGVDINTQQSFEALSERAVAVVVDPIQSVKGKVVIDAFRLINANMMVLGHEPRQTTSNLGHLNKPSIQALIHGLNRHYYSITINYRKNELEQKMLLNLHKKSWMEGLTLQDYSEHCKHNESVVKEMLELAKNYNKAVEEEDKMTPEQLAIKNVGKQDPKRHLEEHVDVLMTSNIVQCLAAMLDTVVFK

In this test the target is 26S proteasome non-ATPase regulatory subunit 14 (Homo sapiens) (UniProt O00487). As to the kind of experiment: Rpn11 (PSMD14) deubiquitinase inhibitors, primary screen, biochemical, fluorescence polarization, uHTS (AID 588493). The following applies: human 26S proteasome, Ub4-pepOG fluorescence polarization; at 20 µM; active compounds read high; 20S core pre-blocked with epoxomicin.
Take `CC1=NCCc2c1[nH]c1ccccc21.O=[N+]([O-])c1cc([N+](=O)[O-])c(O)c([N+](=O)[O-])c1`: the inhibition is inactive: -4.2%.
`O=C(O)c1cccc(Nc2c([N+](=O)[O-])cc([N+](=O)[O-])cc2[N+](=O)[O-])c1`: the inhibition was inactive: -3.4%.
With `Cc1ccc(C)c(NP(C)(=O)Oc2ccccc2)c1` (centres undefined), the inhibition was inactive: -2.6%.
As for `CP(=O)(Nc1cccc(Br)c1)Oc1ccccc1` (centres undefined), the figure is inactive: 3%; as for `Cc1cc(C)cc(OP(C)(=O)Nc2ccccn2)c1` (centres undefined), inactive: -1.1%; as for `COc1ccccc1OP(C)(=O)Nc1cccc(Br)c1` (centres undefined), inactive: -2.1%.
As for `CCOC(=O)c1ccc(NP(C)(=O)Oc2cc(C)cc(C)c2)cc1` (centres undefined), the figure is inactive: 1.4%; as for `Cc1cc(C)cc(OP(C)(=O)Nc2ccc(C)cc2C)c1` (centres undefined), inactive: 0.9%; as for `O=[N+]([O-])c1cc([N+](=O)[O-])c(-c2cnn(-c3ccccc3)c2)c([N+](=O)[O-])c1`, inactive: 3.6%.
On to `Cc1nc2ccc3ccccc3c2s1.O=[N+]([O-])c1cc([N+](=O)[O-])c(O)c([N+](=O)[O-])c1`, for which the inhibition was inactive: 3.2%.
Take `O=[N+]([O-])c1cc([N+](=O)[O-])c(-n2nnc3ccccc32)c([N+](=O)[O-])c1`: the inhibition is inactive: -1.1%.
On to `CN(Cc1cccnc1)C(=O)COc1ccc(Cl)c(Cl)c1.O=[N+]([O-])c1cc([N+](=O)[O-])c(O)c([N+](=O)[O-])c1`, for which the inhibition was inactive: -20.5%.
The figure for `COc1ccccc1OP(C)(=O)Nc1c(C)cccc1C` (centres undefined) is inactive: -0.6%; for `CN1CCCCC1COC(=O)C1(O)c2ccccc2CCc2ccccc21` (centres undefined) it is inactive: -6.8%; for `CP(=O)(Nc1ccc(SC(F)(F)F)cc1)Oc1ccccc1` (centres undefined) it is inactive: -17.2%.
The figure for `CCCOc1ccc(NP(C)(=O)Oc2ccc(Cl)cc2)cc1` (centres undefined) is inactive: 1.9%; for `O=[N+]([O-])c1cc([N+](=O)[O-])c(Nc2nnnn2CCO)c([N+](=O)[O-])c1` it is inactive: -5.7%.
As for `CC1=C2N=C(C=C3N=C(C(C)=C4[N-][C@@](C)([C@@H]5N=C1[C@](C)(CCC(=O)NC[C@@H](C)OP(=O)([O-])O[C@H]1[C@@H](O)[C@@H](n6cnc7cc(C)c(C)cc76)O[C@@H]1CO)[C@H]5CC(N)=O)[C@@](C)(CC(N)=O)[C@@H]4CCC(N)=O)[C@@](C)(CC(N)=O)[C@@H]3CCC(N)=O)C(C)(C)[C@@H]2CCC(N)=O.[C-]#N.[Co+3]`, the figure is inactive: -4.9%; as for `CCOC(=O)C(CC)C1=NC(C)(C)Cc2ccccc21.O=[N+]([O-])c1cc([N+](=O)[O-])c(O)c([N+](=O)[O-])c1` (centres undefined), inactive: -2.1%.
In the case of `CP(=S)(Nn1cnnc1)Oc1ccccc1` (centres undefined), the inhibition was inactive: 0.9%.
As for `CP(=O)(Nc1ccccc1Br)Oc1ccccc1` (centres undefined), the figure is inactive: 15.2%.
Take `COc1ccccc1OP(C)(=O)Nc1ccccc1` (centres undefined): the inhibition was inactive: -2.3%.
As for `CCOC(=O)c1ccc(NP(C)(=O)Oc2ccc(OC)cc2)cc1` (centres undefined), the figure is inactive: 5.7%; as for `O=[N+]([O-])c1cc([N+](=O)[O-])c(O)c([N+](=O)[O-])c1.c1ccc(Oc2ccncc2)cc1`, inactive: 0%.
As for `CCOP(C)(=S)SCC(=O)NC(C)C(=O)O` (centres undefined), the figure is inactive: -2.7%.
As for `CP(=O)(Nc1ccccn1)Oc1ccc(Cl)cc1` (centres undefined), the figure is inactive: -3.7%; as for `Cc1cccc(C)c1OP(C)(=O)Nc1ccc(SC(F)(F)F)cc1` (centres undefined), inactive: -15.4%.
As to `Cc1ccc(Nc2c([N+](=O)[O-])cc([N+](=O)[O-])cc2[N+](=O)[O-])cc1`, the inhibition is inactive: -7.5%.
The figure for `CP(=O)(Nc1ccc(SC(F)(F)F)cc1)Oc1ccc(Cl)cc1` (centres undefined) is inactive: -7.2%; for `CP(=O)(Oc1ccccc1)OC(c1ccccc1)C(F)(F)F` (centres undefined) it is inactive: -7.9%; for `CCc1ccc(OP(C)(=O)N2CCN(c3ccc([N+](=O)[O-])cc3)CC2)cc1` (centres undefined) it is inactive: 11.6%.
The figure for `CP(=O)(NC(=O)Nc1ccccc1)Oc1ccccc1` (centres undefined) is inactive: -4.5%; for `Cc1cc(C)cc(OP(C)(=O)Nc2ccc(SC(F)(F)F)cc2)c1` (centres undefined) it is inactive: -4.3%; for `CCN(CC)CCCOC(=O)C(O)(c1ccccc1)c1ccccc1` it is inactive: -7.5%.
As for `COc1ccccc1OP(C)(=O)Nc1ccc(C)cc1` (centres undefined), the figure is inactive: -0.7%; as for `Cc1ccc(NP(C)(=O)Oc2ccccc2)c(C)c1` (centres undefined), inactive: 1.9%.
As for `CCOC(=O)c1ccc(NP(C)(=O)Oc2ccccc2)cc1` (centres undefined), the inhibition was inactive: 2.2%.
For `Cc1cc(C)cc(OP(C)(N)=O)c1` (centres undefined), the inhibition was inactive: 1.7%.
On to `COc1ccccc1OP(C)(=O)Nc1cc(Cl)ccc1C` (centres undefined), for which the inhibition was inactive: 5.8%.
On to `COc1ccc(OP(C)(=O)Nc2cccc(F)c2)cc1` (centres undefined), for which the inhibition is inactive: -0.5%.
As for `O=[N+]([O-])c1cc([N+](=O)[O-])c(Nc2cccnc2)c([N+](=O)[O-])c1`, the figure is inactive: -5.1%; as for `O=[N+]([O-])c1ccc2c(c1)C=Nc1ccccc1O2`, inactive: -3.4%.
The figure for `CC(C)(C)c1ccc(OP(C)(=O)Nc2ccc(SC(F)(F)F)cc2)cc1` (centres undefined) is inactive: 3.4%.
Turning to `Cc1cccc(C)c1OP(C)(N)=O` (centres undefined), the inhibition was inactive: 0.2%.
As for `CP(=O)(OCCOc1ccccc1)OCCOc1ccccc1`, the figure is inactive: -7.5%; as for `CCCCCCCCCCCCCCCC1C[N+](C)(C)CCOP(C)(=O)O1` (centres undefined), active: 75.1%; as for `CP(=O)(Nc1ccc(Cl)cc1Cl)Oc1ccccc1` (centres undefined), inactive: 2.7%.
On to `O=C1C(O)=C([N+](=O)[O-])C(=O)C(O)=C1[N+](=O)[O-]`, for which the inhibition was inactive: -34.2%.
For the molecule `Cc1cc(C)cc(OP(C)(=O)Nc2cccc(C(F)(F)F)c2)c1` (centres undefined), the inhibition is inactive: 6.6%.
The figure for `COc1ccccc1OP(C)(=O)Nc1ccc(C)c(C)c1` (centres undefined) is inactive: 1.8%; for `COc1ccc(OP(C)(=O)Nc2ccccc2Br)cc1` (centres undefined) it is inactive: -5.8%.
The figure for `O=[N+]([O-])c1cc([N+](=O)[O-])c(Nc2ccccn2)c([N+](=O)[O-])c1` is inactive: 3.5%; for `Cc1c(NP(C)(=O)Oc2ccc(C(C)C)cc2)c(=O)n(-c2ccccc2)n1C` (centres undefined) it is inactive: -4%.
For the molecule `CP(=O)(Nc1ccccn1)Oc1ccccc1` (centres undefined), the inhibition was inactive: 2.7%.
As to `COc1ccccc1OP(C)(=O)Nc1ccc(C)cc1C` (centres undefined), the inhibition is inactive: -2.6%.
The figure for `CCc1ccc(OP(C)(=O)O)cc1` is inactive: 2.4%; for `COc1ccccc1OP(C)(=O)Nc1ccc(Br)cc1` (centres undefined) it is inactive: -26%; for `COc1ccc(OP(C)(=O)Nc2ccccn2)cc1` (centres undefined) it is inactive: -0.4%.
Regarding `CN(C)CCOC(=O)C(O)(c1ccccc1)C1CCCC1` (centres undefined), the inhibition is inactive: 5.7%.
Take `CC(C)(C)c1ccc(OP(C)(=O)O)cc1`: the inhibition is inactive: 3.8%.
The figure for `COc1ccccc1OP(C)(=O)Nc1ccccc1Br` (centres undefined) is inactive: -9%; for `CP(=O)(Nc1ccc(Cl)cc1)Oc1ccc(F)cc1` (centres undefined) it is inactive: -8.6%; for `CN(C)C(=O)c1c([N+](=O)[O-])cc([N+](=O)[O-])cc1[N+](=O)[O-]` it is inactive: 8.1%.
Turning to `CCN(CC)CC(O)COC(=O)C(O)(c1ccccc1)C1CCCCC1` (centres undefined), the inhibition was inactive: -5.4%.
With `COc1ccc(OP(C)(=O)Nc2ccc(Br)cc2)cc1` (centres undefined), the inhibition was inactive: 4.5%.
The figure for `COc1ccccc1OP(C)(=O)Nc1c(C)n(C)n(-c2ccccc2)c1=O` (centres undefined) is inactive: -2.7%; for `O=C(OCCCN1CCCC1)C(O)(c1ccccc1)C1CCCCC1` (centres undefined) it is inactive: -1.3%; for `CP(=O)(Oc1ccccc1)N1CCOC1=O` (centres undefined) it is inactive: 0.8%.
Consider `CCc1ccc(OP(C)(=O)Nc2cccnc2)cc1` (centres undefined), for which the inhibition was inactive: -9.4%.
As for `CCOC(=O)c1ccc(NP(C)(=O)Oc2ccc(Cl)cc2)cc1` (centres undefined), the figure is inactive: -10.3%; as for `CP(=O)(OC12CC3CC(CC(C3)C1)C2)OC12CC3CC(CC(C3)C1)C2`, inactive: 0.5%.
The figure for `O=[N+]([O-])c1ccc(OP2(=O)COCCO2)cc1` (centres undefined) is inactive: -0.9%; for `O=[N+]([O-])c1cc([N+](=O)[O-])c(NCC2CCS(=O)(=O)C2)c([N+](=O)[O-])c1` (centres undefined) it is inactive: 0.3%; for `Cc1cc(-c2cccc3ccccc23)c(C)cn1.O=[N+]([O-])c1cc([N+](=O)[O-])c(O)c([N+](=O)[O-])c1` it is inactive: -6.3%.
The figure for `Cc1c(C(c2ccc3c(c2)OCO3)c2c(C)n(C)n(-c3ccccc3)c2=O)c(=O)n(-c2ccccc2)n1C.O=[N+]([O-])c1cc([N+](=O)[O-])c(O)c([N+](=O)[O-])c1` is inactive: 1.6%; for `COc1ccc(OP(C)(=O)Nc2cccc(Br)c2)cc1` (centres undefined) it is inactive: -12.5%.
Consider `CN(C)CCOC(=O)C(O)(c1ccccc1)C1CCCCC1` (centres undefined), for which the inhibition was inactive: -3%.
As for `CP(=O)(Nc1ccc2c(c1)OCCO2)Oc1ccccc1` (centres undefined), the figure is inactive: 2.4%; as for `Cc1ccccc1NP(C)(=O)Nc1ccccc1C`, inactive: 0.2%.
The figure for `CP(=O)(Nc1ccc(SC(F)(F)F)cc1)Oc1ccc(F)cc1` (centres undefined) is inactive: -10.2%; for `CCOP(C)(=S)SCC(=O)NC(C)(CC)C(=O)O` (centres undefined) it is inactive: -0.1%.
Take `O=C(OC1CN2CCC1CC2)c1ccc([N+](=O)[O-])cc1` (centres undefined): the inhibition was inactive: -1.9%.
With `O=C(OCCN1CCN(CCOCc2ccccc2)CC1)C(O)(c1ccccc1)c1ccccc1`, the inhibition is inactive: 1.6%.
As for `COc1ccc2c(c1O)-c1c(O)c(OC)cc3c1[C@H](C2)[N+](C)(C)CC3.O=[N+]([O-])c1cc([N+](=O)[O-])c([O-])c([N+](=O)[O-])c1[O-]`, the inhibition was inactive: -12.8%.
The figure for `O=[N+]([O-])c1cc([N+](=O)[O-])c(Nc2ccc(Cl)cc2)c([N+](=O)[O-])c1` is inactive: 0.7%.
The figure for `CP(=O)(Nc1ccccc1F)Oc1ccccc1` (centres undefined) is inactive: -7.2%; for `CC(C)c1ccc(OP(C)(=O)Nc2ccc(SC(F)(F)F)cc2)cc1` (centres undefined) it is inactive: -2.5%.
As for `Cc1c([N+](=O)[O-])cc([N+](=O)[O-])c(Br)c1[N+](=O)[O-]`, the figure is inactive: 1.9%; as for `CCN(CC)CCCOC(=O)C(O)(c1ccccc1)C1CCCCC1` (centres undefined), inactive: -3.1%; as for `CP(=O)(Nc1ccccc1)Oc1ccc(F)cc1` (centres undefined), inactive: -1.7%.
In the case of `CCCCCOc1ccc(NP(C)(=O)Oc2ccc(Cl)cc2Cl)cc1` (centres undefined), the inhibition was inactive: 1.1%.
The figure for `O=[N+]([O-])c1cc([N+](=O)[O-])c(OC2CCCCC2O)c([N+](=O)[O-])c1` (centres undefined) is inactive: 0.7%.
`CCOC(=O)c1ccc(NP(C)(=O)Oc2ccc(F)cc2)cc1` (centres undefined): the inhibition was inactive: 0.1%.
For the molecule `COc1ccc(OP(C)(=O)Nc2ccc(SC(F)(F)F)cc2)cc1` (centres undefined), the inhibition is inactive: -3.3%.

These data come from PubChem BioAssay AID588493 (Sanford-Burnham Center for Chemical Genomics, 2011).
